Data reported in ChEMBL document CHEMBL1124370, “Orally active aldose reductase inhibitors derived from bioisosteric substitutions on tolrestat” (1989).

Legend:
[1] = target: Aldo-keto reductase family 1 member B1 (Bos taurus) (UniProt P16116); assay: Inhibition of aldose reductase in partially purified bovine lens preparation at 10e-6 M.
Summary of the method: (§1)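 Aldose reductase partially purified from bovine lens, with the final chromatographic step of the earlier preparation omitted. Assay run in duplicate with test compound at 1 × 10^-6 M or 1 × 10^-7 M. Reported as % inhibition of enzymatic activity.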

[2] = target: Aldo-keto reductase family 1 member B1 (Bos taurus) (UniProt P16116); assay: Inhibition of aldose reductase in partially purified bovine lens preparation at 10e-7 M concentration; summary of the method: as §1

Compound: COc1ccc2c(C(=S)N(C)CC(=O)O)cccc2c1C(F)(F)F [TOLRESTAT]
- inhibition [1]: 94%
- inhibition [2]: 65%
